Experimental data taken from patent publication US20250326772A1, “MRGPRX2 ANTAGONISTS, PHARMACEUTICAL COMPOSITION INCLUDING MRGPRX2 ANTAGONIST, AND METHOD OF TREATING MRGPRX2-MEDIATED DISEASE OR DISORDER” (KYORIN PHARMACEUTICAL CO., LTD., priority 2024, published 2025).

Sequences of proteins named here, by UniProt entry; tags and fusion partners are left off.
UniProt Q96LB1, whole entry: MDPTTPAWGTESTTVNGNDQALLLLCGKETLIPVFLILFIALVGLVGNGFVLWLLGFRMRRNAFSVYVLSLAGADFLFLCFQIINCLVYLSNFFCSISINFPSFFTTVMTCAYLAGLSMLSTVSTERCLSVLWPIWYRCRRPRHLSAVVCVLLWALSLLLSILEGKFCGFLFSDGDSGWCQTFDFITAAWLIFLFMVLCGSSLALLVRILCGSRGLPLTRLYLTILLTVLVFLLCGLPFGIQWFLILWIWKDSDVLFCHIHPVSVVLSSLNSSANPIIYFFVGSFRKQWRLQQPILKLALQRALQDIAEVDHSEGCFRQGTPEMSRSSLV

Biological target: MRGPRX2 (Homo sapiens, UniProt Q96LB1)
Experiment: MRGPRX2 reporter cell assay (NFAT-RE luciferase, Substance P stimulation)
Type: cell-based
Settings: U2OS cells stably transfected with MRGPRX2 and NFAT-RE luciferase reporter; Substance P at EC80; class symbols
Method: MRGPRX2 Reporter Cell Assays U2OS cells (ATCC, Manassas, VA) were stably transfected with MRGPRX2 expression clones (GeneCopoeia, Rockville, MD) and the pGL4.30 [luc2P/NFAT-RE/Hygro] reporter plasmid (Promega, Madison, WI). Clonal cells were maintained in Growth Media (McCoy's 5A, 10% FBS, 495 μg/ml hygromycin, 2 μg/ml puromycin, 100 units/ml penicillin, and 100 ug/ml streptomycin). The day before assay, cells were plated to white 384-well microplates at 3000 (MRGPRX2) cells/well in 10 ul Assay Media (McCoy's 5A, 2% charcoal dextran stripped FBS, 100 units/ml penicillin, and 100 ug/ml streptomycin) (Gibco, Thermo Fisher) and allowed to adhere overnight. The following day, serially diluted compound stocks were added directly to the cells (final DMSO concentration of 0.5%) and pre-incubated for 30 minutes at 37° C., 5% CO2. The final concentration of Substance P (Tocris, Minneapolis, MN, or PEPTIDE INSTITUTE, Osaka, Japan) corresponding to EC80 was added to stimulate the (MRGPRX2) cells. Cells were returned to the incubator for 6 hrs, after which 5 ul of ONE-GLO substrate (Promega) was added. Luminescence was read within 15 minutes (BioTek, Winooski, VT or infinite M1000Pro, Tecan Japan, Kanagawa, Japan). Percent inhibition for each test compound was calculated using the formula: […] where: • A=the luminescence count of the “test compound” well • B=the median luminescence count of the “Vehicle (0.5% DMSO)” wells • C═the median luminescence count of the “Vehicle (0.5% DMSO)+5 uM of substance P” wells The mean percent inhibition of each concentration of “test compound” was used to generate dose-response curves. IC50 values were calculated using a four-parameter logistic fit to the data using GraphPad Prism software. • +++: […]

Structure (SMILES): COc1ccc(F)cc1-c1[nH]c2ncccc2c1-c1ccccc1OC(F)(F)F
- IC50: < 0.01 µM

Structure (SMILES): FC(F)c1nn2c(c1-c1[nH]c3ncccc3c1-c1ccsc1Cl)OCCC2
- IC50: < 0.01 µM

Structure (SMILES): COc1ccc(F)c(-c2c(-c3cc(F)ccc3O)[nH]c3ncccc23)c1
- IC50: < 0.01 µM

Structure (SMILES): Cc1ccc(F)c(-c2c(-c3c(O)cccc3F)[nH]c3ncccc23)c1
- IC50: < 0.01 µM

Structure (SMILES): Cn1cc(-c2[nH]c3nccc(F)c3c2-c2ccccc2C#N)c(C(F)F)n1
- IC50: < 0.01 µM
